# Test results from PubChem BioAssay AID2177 (The Scripps Research Institute Molecular Screening Center, 2009).
# Sequences of proteins named here, by UniProt entry; tags and fusion partners are left off. A change or cut given only in a name is not applied to a line headed by its entry.
# UniProt O95372: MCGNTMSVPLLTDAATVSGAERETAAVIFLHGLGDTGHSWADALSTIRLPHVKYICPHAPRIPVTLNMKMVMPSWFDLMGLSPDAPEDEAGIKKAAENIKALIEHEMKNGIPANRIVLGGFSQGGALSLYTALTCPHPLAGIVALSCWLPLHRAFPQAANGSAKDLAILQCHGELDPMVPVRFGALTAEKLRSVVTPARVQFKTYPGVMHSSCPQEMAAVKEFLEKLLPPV
# The list shows a part of the results, in another mix than the full data. The source made the active and inactive calls.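 How the source made its calls: active means inhibition above the screen-wide mean plus 3 SD, limit set per campaign (cut at about 26% in these data); inactive means the rest.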
# Target: Acyl-protein thioesterase 2 (Homo sapiens) (UniProt O95372)
# Assay: inhibition of human lysophospholipase 2 – biochemical, fluorescence polarization, FP-Rh probe ABPP, counter-screen for PME1 inhibitor project, primary screen (AID 2177);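 further: 0% = LYPLA2 with DMSO and 100% = wells lacking LYPLA2 enzyme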
# Details: recombinant LYPLA2, FP-Rh probe fluorescence polarization; at 5.9 µM; stronger effect = higher value
row,SMILES,inhibition
1,CC(=O)NC(SC(=S)N(C)C)C(Cl)(Cl)Cl (stereo not given),inactive: -0.42%
2,O=P(Nc1nc2ccccc2s1)(c1ccccc1)c1ccccc1,inactive: 6.62%
3,C[C@H]1OP(=O)(Oc2ccccc2)[C@H](O)[C@H](O)[C@H]1N=[N+]=[N-] (stereo not given in full),inactive: -0.24%
4,O=P(Nc1ccccn1)(c1ccc(Br)cc1)c1ccc(Br)cc1,inactive: -5.68%
5,CN(C)C1(CNC(=O)c2ccc(Cl)c(S(N)(=O)=O)c2)CCCCC1,inactive: 5.57%
6,c1nnnn1CCn1cnnn1,inactive: 0.04%
7,CC(C)C(=O)NC(Sc1ccccc1)C(Cl)(Cl)Cl (stereo not given),inactive: -2.1%
8,O=P(Nc1nccs1)(c1ccccc1)c1ccccc1,inactive: 5.77%
9,CC1CCN(C(=O)Oc2c(Cl)cc(Cl)c3cccnc23)CC1,inactive: 4.33%
10,CC(C)=N/N=C(\N)N[N+](=O)[O-],inactive: -1.55%
11,CN(C)C(=O)OCCc1n(C)cc[n+]1C,inactive: -2.12%
12,CCN(/C(=N/P(=O)(N1CCOCC1)N1CCOCC1)N1CCOCC1)c1ccc(OC)cc1,inactive: -6.62%
13,Nc1ccc([As](=O)(O)c2ccc(N)cc2)cc1,inactive: 0.93%
14,C[N+]1=C2C=CC=CC=C2SC12C([N+](=O)[O-])=CC([N+](=O)[O-])=C[C-]2[N+](=O)[O-] (stereo not given),inactive: -3.51%
15,Cc1ccc(NP(=O)(Oc2ccccc2)Oc2ccccc2)nc1,inactive: -2.33%
16,CCc1nc2c(n1)c1c(non1O)c1c2no[n+]1[O-],inactive: 3.03%
17,O=[N+]([O-])c1cc([N+](=O)[O-])c(CCNc2ccccc2)c([N+](=O)[O-])c1,inactive: 13.9%
18,O=[N+]([O-])c1cccc2n[nH]nc12,inactive: 6.48%
19,CC(=O)N1C2C3N(C(C)=O)C1C1N(C(C)=O)C(C(N1C(C)=O)N3C(C)=O)N2C(C)=O,inactive: 11.3%
20,COc1ccc(C2=NCC(CBr)S2)cc1 (stereo not given),inactive: -5.61%
21,O=[N+]([O-])c1cccc(NC2=NCC(CBr)S2)c1 (stereo not given),inactive: 2.48%
22,O=[N+]([O-])c1ncn(CCn2ncnc2[N+](=O)[O-])n1,inactive: -2.85%
23,CC(C)(C)C(=O)NC(Sc1ccncn1)C(Cl)(Cl)Cl (stereo not given),inactive: 1.21%

row,SMILES,inhibition
1,O=C(Nc1cc([As](=O)(O)O)ccc1O)c1ccccc1,inactive: -3.26%
2,CCN(N=Nc1nonc1N)c1nonc1N,inactive: 0.08%
3,O=[N+]([O-])c1cc([N+](=O)[O-])c(CCN2CCOCC2)c([N+](=O)[O-])c1,inactive: 17.8%
4,Cc1cc(SC(NC(=O)c2ccc(F)cc2)C(Cl)(Cl)Cl)ncn1 (stereo not given),inactive: -2.58%
5,CCOP(=O)(Nc1ccccc1)OCC,inactive: 11.8%
6,Cc1ccc(NP(=O)(Oc2ccccc2F)Oc2ccccc2F)nc1,inactive: 1.41%
7,CN(C(=O)Cc1ccc(Cl)c(Cl)c1)[C@H]1CCCC[C@@H]1N1CCCC1,inactive: 3.44%
8,O=P(Nc1nc2ccc(Cl)cc2s1)(c1ccccc1)c1ccccc1,inactive: -1%
9,CC(=O)Nc1ccc([As](=O)(O)O)cc1,inactive: 6.56%
10,O=C(O)c1ccccc1[As](=O)(O)O,inactive: 5.08%
11,Oc1ccccc1CNc1ccccn1,inactive: 1.92%
12,O=C(NC(Sc1ccncn1)C(Cl)(Cl)Cl)c1ccccc1 (stereo not given),inactive: -0.35%
13,Cc1c2non([O-])c-2c(C)[n+](=O)[n+]1[O-],inactive: 2.36%
14,Nc1cc(N)c2nonc2c1[N+](=O)[O-],inactive: 5.5%
15,CC(C)CC(=O)NC(Sc1ccc(Cl)cc1)C(Cl)(Cl)Cl (stereo not given),inactive: -1.73%
16,CN1CCCC(OC(=O)C(c2ccccc2)c2ccccc2)C1 (stereo not given),inactive: -4.01%
17,Clc1ccc(Cl)c(NC2=NCC(CBr)S2)c1 (stereo not given),inactive: -1.25%
18,COc1ccccc1OP(=O)(Nc1ccc(C)cn1)Oc1ccccc1OC,inactive: 0.32%
19,Cc1ccc(OP(=O)(Nc2nccs2)Oc2ccc(C)cc2)cc1,inactive: 0.52%
20,CN(C(=O)Cc1ccc(Cl)c(Cl)c1)[C@H]1CCCC[C@H]1N1CCCC1,inactive: 1.67%
21,Cc1ccc(N/C(=N/P(=O)(N2CCOCC2)N2CCOCC2)N2CCOCC2)cc1,inactive: 0.11%
22,NC(=O)c1cc([N+](=O)[O-])cc([N+](=O)[O-])c1N,inactive: -1.2%
